This is an account of results in ChEMBL document CHEMBL4265883, “Nav1.7 inhibitors for the treatment of chronic pain” (Bioorg Med Chem Lett, 2018).

The data set is filed under the species Mus musculus. As to the kind of experiment: Toxicity in mouse assessed as mortality. Conditions: in vivo.

Structures are written as SMILES.

As usually defined, the LD50 is the dose at which mortality reaches 50%. For the compound `NC1=N[C@H](O)[C@H]2[C@H]3O[C@]4(O)O[C@@H]([C@H](O)[C@@]2(N1)[C@@H]4O)[C@]3(O)CO`, the LD50 worked out at 0.3 mg/kg.
